Laboratory results reported in patent EP2486923B1, “Histone deacetylase (HDAC) inhibiting compounds and method of making same” (Dr. Felix Jäger und Dr. Stefan Drinkuth Laborgemeinschaft …, priority 2011, dated 2012).

Molecular target: T1, HDAH (Alcaligenes sp., UniProt Q70I53)
T1 sequence (Q70I53 1-369): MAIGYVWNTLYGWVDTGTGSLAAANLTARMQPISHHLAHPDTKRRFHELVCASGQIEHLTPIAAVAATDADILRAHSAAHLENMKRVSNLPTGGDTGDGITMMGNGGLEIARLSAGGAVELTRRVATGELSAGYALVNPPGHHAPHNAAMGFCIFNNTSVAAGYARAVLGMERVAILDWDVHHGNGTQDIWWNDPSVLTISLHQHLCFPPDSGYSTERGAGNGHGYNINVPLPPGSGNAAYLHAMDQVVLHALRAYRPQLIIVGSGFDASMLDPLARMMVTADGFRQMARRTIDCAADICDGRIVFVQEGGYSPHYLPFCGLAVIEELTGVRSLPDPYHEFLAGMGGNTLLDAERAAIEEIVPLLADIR
Assay: Two-step fluorescence assay for determination of IC50
Format: biochemical
Protocol: In order to evaluate the inhibitory characteristics of example compounds of the invention, IC50 values were determined for such compounds. The IC50 value is the half maximal (50%) inhibitory concentration (IC) of a substance (50% IC, or IC50), i.e. the concentration of a given compound that is necessary to inhibit a given biological process, e.g. an enzyme activity, by half. A two-step assay was used for this purpose.
To obtain the IC50 value for an individual compound/HDAC pair, a two-step assay can be performed based on a fluorescence signal. In principle, an ε-acetylated lysine substrate is deacetylated by histone-deacetylases in the first step. Trypsin releases detectable 7-amino-4-methylcoumarin (ex = excitation wavelength: 390 nm, em = emission wavelength: 460 nm) by cleaving the substrate at the deacetylated lysine in a subsequent reaction^[9]. The enzyme activity is inhibited by a suitable HDACi.
The obtained data are interpreted using a four parameter fit. Based on this fit, the IC50 value can be estimated. Analysis ot the data and calculation of the IC50 values was accomplished using a four-parameter logistic model protocol as previously described by Vølund^[16]. For nonlinear fits the Levenberg-Marquardt algorithm was applied^[17],[18]. […]. Table 1: IC50 values in µM for synthesized compounds of the invention with a perfluorinated linker. […]

IC50: 810 nM
SMILES: O=C(CCCCCCC(=O)Nc1ccccc1)NO [SAHA, Vorinostat, reference compound]
